Experimental data from PMC9571408, “Synthesis of Isomeric 3-Benzazecines Decorated with Endocyclic Allene Moiety and Exocyclic Conjugated Double Bond and Evaluation of Their Anticholinesterase Activity” (Molecules, 2022).
Converted amounts (≈) assume the structure as drawn. “And” between values parts separate entries of the source, which are not always exact repeats. Equal values may be shown once.

By UniProt entry, the sequences of proteins in these tests, tags left out. Residues count along the entry.
UniProt P21397, whole entry: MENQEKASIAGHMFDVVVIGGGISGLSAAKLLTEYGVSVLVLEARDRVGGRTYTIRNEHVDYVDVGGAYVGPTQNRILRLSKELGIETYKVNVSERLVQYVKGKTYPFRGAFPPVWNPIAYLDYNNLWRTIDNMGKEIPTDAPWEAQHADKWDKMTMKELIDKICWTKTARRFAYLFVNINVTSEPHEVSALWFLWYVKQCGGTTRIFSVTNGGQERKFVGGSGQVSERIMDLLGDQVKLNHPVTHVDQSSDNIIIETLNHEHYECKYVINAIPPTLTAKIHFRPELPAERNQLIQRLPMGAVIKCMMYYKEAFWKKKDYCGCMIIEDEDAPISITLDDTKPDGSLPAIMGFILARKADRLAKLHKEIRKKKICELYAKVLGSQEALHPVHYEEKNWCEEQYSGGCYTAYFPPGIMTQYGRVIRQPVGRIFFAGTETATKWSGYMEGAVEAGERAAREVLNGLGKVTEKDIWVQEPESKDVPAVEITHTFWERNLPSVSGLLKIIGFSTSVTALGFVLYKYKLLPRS
UniProt P27338, whole entry: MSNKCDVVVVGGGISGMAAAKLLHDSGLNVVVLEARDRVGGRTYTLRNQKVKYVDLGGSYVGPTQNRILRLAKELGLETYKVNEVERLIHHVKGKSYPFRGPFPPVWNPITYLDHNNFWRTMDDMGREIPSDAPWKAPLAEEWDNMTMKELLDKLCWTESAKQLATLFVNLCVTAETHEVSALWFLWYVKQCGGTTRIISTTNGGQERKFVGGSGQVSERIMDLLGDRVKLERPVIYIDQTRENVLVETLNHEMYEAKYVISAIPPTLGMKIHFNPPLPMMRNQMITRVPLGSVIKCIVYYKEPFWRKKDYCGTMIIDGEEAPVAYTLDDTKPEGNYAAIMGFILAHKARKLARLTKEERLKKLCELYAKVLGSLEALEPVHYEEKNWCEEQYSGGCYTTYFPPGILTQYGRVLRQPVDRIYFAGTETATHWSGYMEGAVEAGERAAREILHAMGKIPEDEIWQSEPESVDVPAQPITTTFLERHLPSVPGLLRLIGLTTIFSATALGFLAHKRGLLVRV
UniProt P22303, 32-614 limits assumed: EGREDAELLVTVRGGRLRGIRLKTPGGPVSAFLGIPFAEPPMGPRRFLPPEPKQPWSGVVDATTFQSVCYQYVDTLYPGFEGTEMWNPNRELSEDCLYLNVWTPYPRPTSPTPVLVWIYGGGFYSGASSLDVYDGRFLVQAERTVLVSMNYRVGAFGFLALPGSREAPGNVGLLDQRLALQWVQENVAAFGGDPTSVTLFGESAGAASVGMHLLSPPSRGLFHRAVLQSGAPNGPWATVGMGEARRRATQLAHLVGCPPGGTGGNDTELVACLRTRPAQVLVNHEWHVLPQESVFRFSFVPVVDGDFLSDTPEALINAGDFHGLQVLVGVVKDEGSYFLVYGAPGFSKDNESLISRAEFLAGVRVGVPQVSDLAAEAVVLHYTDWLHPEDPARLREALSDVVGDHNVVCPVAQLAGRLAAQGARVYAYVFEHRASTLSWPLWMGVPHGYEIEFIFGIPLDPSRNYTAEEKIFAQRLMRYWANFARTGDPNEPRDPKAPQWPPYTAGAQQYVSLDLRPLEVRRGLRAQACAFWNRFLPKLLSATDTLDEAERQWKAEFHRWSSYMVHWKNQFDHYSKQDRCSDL

Legend:
[1] = target: human recombinant monoamine oxidase A (Homo sapiens, UniProt P21397); conditions: cited from earlier work
[2] = Hydrolytic stability in water-buffered solution by U-HPLC; conditions: PBS pH 7.4, 0.15 M KCl, 37 °C (table footnote)
[3] = Kinetic aqueous solubility by U-HPLC; conditions: PBS pH 7.4, 0.15 M KCl, 37 °C
P-gp = conditions: earlier P-gp assay; reference not given; cited from earlier work
[4] = target: human recombinant monoamine oxidase B (Homo sapiens, UniProt P27338); conditions: cited from earlier work
human recombinant AChE = human recombinant AChE (Homo sapiens, UniProt P22303); conditions: cited from earlier work

For COC(=O)C1=CN(C)CCc2cc(OC)c(OC)cc2C(c2ccc(OC)cc2)=C=C1c1ccccc1, the “hMAO-A % inhibition at 10 μM” value [1] is given as “(20 ± 5) %”, the Hydrolytic half-life [2] is given as over 12 h and the Solubility [3] is given as 0.200 ± 0.015 µM (≈ 0.0995 µg/mL). For the same compound, the P-gp inhibition (P-gp) was “potent inhibitors of P-gp in the nanomolar range”, the “hMAO-B % inhibition at 10 μM” value [4] was “(24 ± 5) %” and the IC50 (human recombinant AChE) was 5.05 µM. For the same compound, the Ki (human recombinant AChE) was 4.5 µM and 4.45 µM.
